The chains behind the UniProt entries cited, without tags or fusion partners.
UniProt P15056, whole entry: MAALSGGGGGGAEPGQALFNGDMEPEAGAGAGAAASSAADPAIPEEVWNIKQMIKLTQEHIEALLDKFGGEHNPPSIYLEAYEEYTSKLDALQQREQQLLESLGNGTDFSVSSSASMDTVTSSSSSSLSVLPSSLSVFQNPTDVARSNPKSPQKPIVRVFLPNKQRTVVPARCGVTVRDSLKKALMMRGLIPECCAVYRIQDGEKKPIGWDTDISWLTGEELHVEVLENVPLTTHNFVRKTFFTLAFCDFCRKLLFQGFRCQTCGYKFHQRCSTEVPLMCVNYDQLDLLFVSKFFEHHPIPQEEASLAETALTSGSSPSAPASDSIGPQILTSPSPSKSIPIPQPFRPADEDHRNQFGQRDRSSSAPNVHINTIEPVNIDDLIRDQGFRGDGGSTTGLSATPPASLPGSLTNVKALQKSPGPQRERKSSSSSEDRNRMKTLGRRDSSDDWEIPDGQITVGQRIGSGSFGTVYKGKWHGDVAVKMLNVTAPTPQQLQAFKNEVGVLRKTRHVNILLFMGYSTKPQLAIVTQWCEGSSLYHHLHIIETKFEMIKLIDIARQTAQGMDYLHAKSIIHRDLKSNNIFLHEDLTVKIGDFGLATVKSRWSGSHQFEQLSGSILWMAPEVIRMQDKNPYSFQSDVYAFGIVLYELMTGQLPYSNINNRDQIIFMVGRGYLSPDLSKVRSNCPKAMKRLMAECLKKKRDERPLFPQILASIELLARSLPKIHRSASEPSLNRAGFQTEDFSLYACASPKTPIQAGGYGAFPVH

In ChEMBL document CHEMBL1777745, “Non-oxime pyrazole based inhibitors of B-Raf kinase” (Bioorg Med Chem Lett, 2011):

Molecular target: Serine/threonine-protein kinase B-raf (Homo sapiens, UniProt P15056)
Assay: Inhibition of B-Raf

c1cc(-c2nn(C3CCNCC3)cc2-c2ccc3c(c2)Cc2c[nH]nc2-3)ccn1
IC50: 3 nM
